{
  "sequences": {"note": "Chains of the proteins cited; added tags and fusions are not shown.", "UniProt P30536, whole entry": "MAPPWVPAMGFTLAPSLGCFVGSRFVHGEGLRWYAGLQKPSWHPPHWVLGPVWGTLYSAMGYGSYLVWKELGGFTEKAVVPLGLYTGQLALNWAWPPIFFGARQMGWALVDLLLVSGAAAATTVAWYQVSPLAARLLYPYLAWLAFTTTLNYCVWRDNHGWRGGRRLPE"},
  "source": "paper PMC3685188",
  "about": "(Chemical Research in Toxicology, 2013)",
  "molecular_target": "hPBR (Homo sapiens, UniProt P30536)",
  "assay": "MP_hPBR translocator protein",
  "type": "binding",
  "data": [
    {"compound": "CCC(C)N(C)C(=O)c1cc2ccccc2c(-c2ccccc2Cl)n1", "note": "(stereo not shown) [PK11195, reference compound]", "values": [
      {"measurement": "AC50 at the lowest concentration tested (LCT)", "result": "MP_hPBR"}
    ]}
  ]
}
